According to patent US10118930B2, “Piperidinylpyrazolopyrimidinones and their use” (BAYER PHARMA AKTIENGESELLSCHAFT, priority 2015, dated 2018):
Where a name gives a salt, the structure may show the parent alone.

tested on: clot lysis (fibrinolysis) in diluted human citrated plasma, tPA-induced; experiment: Plasma-based clot lysis assay (5%); format: biochemical; settings: human citrated platelet-poor plasma 5%, fibrinogen 3 μM, CaCl2 10 mM, tPA 0.2 nM, 37° C., OD at 405 nm
Method: B-2. Plasma-based Clot Lysis Assay (5%)
The clot-lysis test system configures the kinetics of clot formation and degradation in vitro and allows quantifying modulation of the process by selected test compounds.
The test compounds were dissolved in 1% acetic acid and further complemented with an equal volume of DMSO. The resulting stock solutions were serially diluted in 0.5% acetic acid/50% DMSO. 1 μL aliquots of these solutions were placed into 384 well microplates (Greiner, black, transparent bottom), followed by 30 μL of diluted human citrated plasma (platelet-poor, final concentration: 5%; supplemented with fibrinogen, final concentration: 3 μM; dilution buffer: 20 mM HEPES, 150 mM NaCl, 0.01% Brij (pH 7)). The reactions were started by addition of 20 μL of CaCl2 (final concentration: 10 mM), and tPA (tissue plasminogen activator, final concentration: 0.2 nM) in dilution buffer, followed by an additional volume of 20 μL dilution buffer for improved mixing. The reactions were incubated at 37° C. […] IC50 values were determined by comparing the resulting time courses with the time course of a blank control reaction.

Row | SMILES | IC50 [nM]
1 | O=c1cc(C2CCNCC2)n2ncc(-c3nnc(-c4cccc(Cl)c4)o3)c2[nH]1 [Example 169, 3-[5-(3-chlorophenyl)-1,3,4-oxadiazol-2-yl]-7-(piperidin-4-yl)pyrazolo[1,5-a]pyrimidin-5(4H)-one hydrochloride] | 34
2 | Cc1ccccc1-c1nnc(-c2cnn3c(C4CCNCC4)cc(=O)[nH]c23)o1 [Example 171, 3-[5-(2-methylphenyl)-1,3,4-oxadiazol-2-yl]-7-(piperidin-4-yl)pyrazolo[1,5-a]pyrimidin-5(4H)-one hydrochloride] | 35
3 | COc1ccc(Cc2nnc(-c3cnn4c(C5CCNCC5)cc(=O)[nH]c34)o2)cc1 [Example 176, 3-[5-(4-methoxybenzyl)-1,3,4-oxadiazol-2-yl]-7-(piperidin-4-yl)pyrazolo[1,5-a]pyrimidin-5(4H)-one hydrochloride] | 38
4 | Cc1cc(-c2nnc(-c3cnn4c(C5CCNCC5)cc(=O)[nH]c34)o2)ccn1 [Example 183, 3-[5-(2-methylpyridin-4-yl)-1,3,4-oxadiazol-2-yl]-7-(piperidin-4-yl)pyrazolo[1,5-a]pyrimidin-5(4H)-one hydrochloride] | 50
5 | COc1ccccc1-c1nnc(-c2cnn3c(C4CCNCC4)cc(=O)[nH]c23)o1 [Example 184, 3-[5-(2-methoxyphenyl)-1,3,4-oxadiazol-2-yl]-7-(piperidin-4-yl)pyrazolo[1,5-a]pyrimidin-5(4H)-one hydrochloride] | 36
6 | O=c1cc(C2CCNCC2)n2ncc(-c3nc(C4CCN(C5CC5)CC4)no3)c2[nH]1 [Example 193, 3-[3-(1-cyclopropylpiperidin-4-yl)-1,2,4-oxadiazol-5-yl]-7-(piperidin-4-yl)pyrazolo[1,5-a]pyrimidin-5(4H)-one hydrochloride] | 32
7 | CC(C)(C)c1noc(-c2cnn3c(C4CCNCC4)cc(=O)[nH]c23)n1 [Example 194, 3-(3-tert-butyl-1,2,4-oxadiazol-5-yl)-7-(piperidin-4-yl)pyrazolo[1,5-a]pyrimidin-5(4H)-one hydrochloride] | 29
8 | CC(C)(C)c1ccc(-c2noc(-c3cnn4c(C5CCNCC5)cc(=O)[nH]c34)n2)cc1 [Example 196, 3-[3-(4-tert-butylphenyl)-1,2,4-oxadiazol-5-yl]-7-(piperidin-4-yl)pyrazolo[1,5-a]pyrimidin-5(4H)-one hydrochloride] | 75
9 | CN(C)c1ccc(-c2noc(-c3cnn4c(C5CCNCC5)cc(=O)[nH]c34)n2)cc1F [Example 197, 3-{3-[4-(dimethylamino)-3-fluorophenyl]-1,2,4-oxadiazol-5-yl}-7-(piperidin-4-yl)pyrazolo[1,5-a]pyrimidin-5(4H)-one hydrochloride] | 35
10 | O=c1cc(C2CCNCC2)n2ncc(-c3nc(-c4ncc(F)cc4F)no3)c2[nH]1 [Example 202, 3-[3-(3,5-difluoropyridin-2-yl)-1,2,4-oxadiazol-5-yl]-7-(piperidin-4-yl)pyrazolo[1,5-a]pyrimidin-5(4H)-one hydrochloride] | 37
11 | COCCc1noc(-c2cnn3c(C4CCNCC4)cc(=O)[nH]c23)n1 [Example 206, 3-[3-(2-methoxyethyl)-1,2,4-oxadiazol-5-yl]-7-(piperidin-4-yl)pyrazolo[1,5-a]pyrimidin-5(4H)-one hydrochloride] | 20
12 | O=c1cc(C2CCNCC2)n2ncc(-c3nc(-c4ccncc4)no3)c2[nH]1 [Example 207, 7-(piperidin-4-yl)-3-[3-(pyridin-4-yl)-1,2,4-oxadiazol-5-yl]pyrazolo[1,5-a]pyrimidin-5(4H)-one hydrochloride] | 93
13 | CCOC(=O)c1noc(-c2cnn3c(C4CCNCC4)cc(=O)[nH]c23)n1 [Example 211, Ethyl 5-[5-oxo-7-(piperidin-4-yl)-4,5-dihydropyrazolo[1,5-a]pyrimidin-3-yl]-1,2,4-oxadiazole-3-carboxylate hydrochloride] | 34

Results, then the compound that gave them:

Row | IC50 [nM] | SMILES
14 | 34 | Cc1ccccc1-c1nc(-c2cnn3c(C4CCNCC4)cc(=O)[nH]c23)no1 [Example 225, 3-[5-(2-methylphenyl)-1,2,4-oxadiazol-3-yl]-7-(piperidin-4-yl)pyrazolo[1,5-a]pyrimidin-5(4H)-one hydrochloride]
15 | 36 | Cc1c(Cl)cccc1-c1nc(-c2cnn3c(C4CCNCC4)cc(=O)[nH]c23)no1 [Example 229, 3-[5-(3-chloro-2-methylphenyl)-1,2,4-oxadiazol-3-yl]-7-(piperidin-4-yl)pyrazolo[1,5-a]pyrimidin-5(4H)-one hydrochloride]
16 | 34 | CC(C)(C)c1nc(-c2cnn3c(C4CCNCC4)cc(=O)[nH]c23)no1 [Example 257, 3-(5-tert-butyl-1,2,4-oxadiazol-3-yl)-7-(piperidin-4-yl)pyrazolo[1,5-a]pyrimidin-5(4H)-one hydrochloride]
17 | 24 | O=c1cc(C2CCNCC2)n2ncc(-c3noc(C45CCC(CC4)CC5)n3)c2[nH]1 [Example 261, 3-[5-(bicyclo[2.2.2]oct-1-yl)-1,2,4-oxadiazol-3-yl]-7-(piperidin-4-yl)pyrazolo[1,5-a]pyrimidin-5(4H)-one hydrochloride]
18 | 28 | O=c1cc(C2CCNCC2)n2ncc(-c3cc(-c4ccccc4)no3)c2[nH]1 [Example 263, 3-(3-phenyl-1,2-oxazol-5-yl)-7-(piperidin-4-yl)pyrazolo[1,5-a]pyrimidin-5(4H)-one hydrochloride]
19 | 17 | Cc1cnc(Cc2nnc(-c3cnn4c(C5CCNCC5)cc(=O)[nH]c34)o2)s1 [Example 277, 3-{5-[(5-methyl-1,3-thiazol-2-yl)methyl]-1,3,4-oxadiazol-2-yl}-7-(piperidin-4-yl)pyrazolo[1,5-a]pyrimidin-5(4H)-one hydrochloride]
20 | 90 | CC(CN1CCOCC1)c1nnc(-c2cnn3c(C4CCNCC4)cc(=O)[nH]c23)o1 (centres unmarked) [Example 281, 3-{5-[1-(morpholin-4-yl)propan-2-yl]-1,3,4-oxadiazol-2-yl}-7-(piperidin-4-yl)pyrazolo[1,5-a]pyrimidin-5(4H)-one hydrochloride]
21 | 10 | O=c1cc(C2CCNCC2)n2ncc(-c3nnc(CCc4ccccc4)o3)c2[nH]1 [Example 283, 3-[5-(2-phenylethyl)-1,3,4-oxadiazol-2-yl]-7-(piperidin-4-yl)pyrazolo[1,5-a]pyrimidin-5(4H)-one hydrochloride]
22 | 28 | O=c1cc(C2CCNCC2)n2ncc(-c3nnc(Cc4ccccn4)o3)c2[nH]1 [Example 285, 7-(piperidin-4-yl)-3-[5-(pyridin-2-ylmethyl)-1,3,4-oxadiazol-2-yl]pyrazolo[1,5-a]pyrimidin-5 (4H)-one trihydrochloride]
23 | 34 | O=C1CCCN1Cc1nnc(-c2cnn3c(C4CCNCC4)cc(=O)[nH]c23)o1 [Example 292, 3-{5-[(2-oxopyrrolidin-1-yl)methyl]-1,3,4-oxadiazol-2-yl}-7-(piperidin-4-yl)pyrazolo[1,5-a]pyrimidin-5(4H)-one hydrochloride]
24 | 30 | Cc1nn2c(C3CCNCC3)cc(=O)[nH]c2c1-c1nc(C(C)C)no1 [Example 301, 2-methyl-7-(piperidin-4-yl)-3-[3-(propan-2-yl)-1,2,4-oxadiazol-5-yl]pyrazolo[1,5-a]pyrimidin-5(4H)-one hydrochloride]
25 | 20 | CC(CF)(CF)c1csc(-c2cnn3c(C4CCNCC4)cc(=O)[nH]c23)n1 [Example 307, 3-[4-(1,3-difluoro-2-methylpropan-2-yl)-1,3-thiazol-2-yl]-7-(piperidin-4-yl)pyrazolo[1,5-a]pyrimidin-5(4H)-one hydrochloride]
26 | 36 | CC(C)OC(=O)c1cnn2c(C3CCNCC3)cc(=O)[nH]c12 [Example 315, Propan-2-yl 5-oxo-7-(piperidin-4-yl)-4,5-dihydropyrazolo[1,5-a]pyrimidine-3-carboxylate hydrochloride]
27 | 82 | O=C(c1cnn2c(C3CCNCC3)cc(=O)[nH]c12)N1CC[C@@H](O)C1 [Example 320, 3-{[(3R)-3-hydroxypyrrolidin-1-yl]carbonyl}-7-(piperidin-4-yl)pyrazolo[1,5-a]pyrimidin-5(4H)-one hydrochloride]
28 | 21 | Cc1nc(-c2cnn3c(C4CCNCC4)cc(=O)[nH]c23)sc1C [Example 328, 3-(4,5-dimethyl-1,3-thiazol-2-yl)-7-(piperidin-4-yl)pyrazolo[1,5-a]pyrimidin-5(4H)-one hydrochloride]
29 | 54 | Cc1ccc(C)c(-c2csc(-c3cnn4c(C5CCNCC5)cc(=O)[nH]c34)n2)c1 [Example 329, 3-[4-(2,5-dimethylphenyl)-1,3-thiazol-2-yl]-7-(piperidin-4-yl)pyrazolo[1,5-a]pyrimidin-5(4H)-one hydrochloride]
30 | 24 | O=c1cc(C2CCNCC2)n2ncc(-c3nnc(Cc4cccnc4)o3)c2[nH]1 [Example 331, 7-(piperidin-4-yl)-3-[5-(pyridin-3-ylmethyl)-1,3,4-oxadiazol-2-yl]pyrazolo[1,5-a]pyrimidin-5 (4H)-one hydrochloride]
31 | 370 | O=c1cc(C2CCNCC2)n2nc3c(c2[nH]1)CCCC3 [Example 333, 4-(piperidin-4-yl)-7,8,9,10-tetrahydropyrimido[1,2-b]indazol-2(1H)-one hydrochloride]
32 | 30 | Cc1sc(-c2cnn3c(C4CCNCC4)cc(=O)[nH]c23)nc1C(F)(F)F [Example 334, 3-[5-methyl-4-(trifluoromethyl)-1,3-thiazol-2-yl]-7-(piperidin-4-yl)pyrazolo[1,5-a]pyrimidin-5(4H)-one hydrochloride]
